The compounds below were run against C-Raf FL (full-length C-Raf protein, Y340E and Y341E activating mutations) (Homo sapiens (Human), UniProt P04049, Y340E/Y341E). Details: AlphaScreen, 60 min pre-incubation, reaction 1 hour at room temperature; read-out: c-Raf FL IC-50.
Type: biochemical

Protein sequences, listed by entry. Tags and fused reporters are not part of them.
UniProt P04049, whole entry Y340E/Y341E: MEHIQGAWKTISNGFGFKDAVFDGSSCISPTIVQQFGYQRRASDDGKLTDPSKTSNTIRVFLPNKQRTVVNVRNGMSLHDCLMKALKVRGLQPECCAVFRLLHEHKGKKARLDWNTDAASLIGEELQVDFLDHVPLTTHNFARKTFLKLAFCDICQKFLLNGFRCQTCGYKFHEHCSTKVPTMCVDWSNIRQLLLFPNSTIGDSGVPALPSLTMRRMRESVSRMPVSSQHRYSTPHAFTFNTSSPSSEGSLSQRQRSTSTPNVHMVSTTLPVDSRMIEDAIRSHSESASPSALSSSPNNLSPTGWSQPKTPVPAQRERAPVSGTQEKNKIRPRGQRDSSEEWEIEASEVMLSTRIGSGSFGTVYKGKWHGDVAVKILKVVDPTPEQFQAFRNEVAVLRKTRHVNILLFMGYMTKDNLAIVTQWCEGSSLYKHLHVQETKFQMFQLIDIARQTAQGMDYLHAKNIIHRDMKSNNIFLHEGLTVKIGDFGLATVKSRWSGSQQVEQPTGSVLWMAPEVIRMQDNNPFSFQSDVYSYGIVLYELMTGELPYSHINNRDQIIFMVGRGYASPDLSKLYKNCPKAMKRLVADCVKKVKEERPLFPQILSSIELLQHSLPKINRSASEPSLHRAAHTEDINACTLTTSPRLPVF

Row | Structure (SMILES) | IC50
1 | Cc1ncc(NC(=O)c2ccnc(C(C)(C)O)c2)cc1-c1cc(N2CCOCC2)c2nccn2n1 [Example 870, 2-(2-hydroxypropan-2-yl)-N-(6-methyl-5-(8-morpholinoimidazo[1,2-b]pyridazin-6-yl)pyridin-3-yl)isonicotinamide] | 1.5 nM
2 | Cc1ncc(NC(=O)c2ccc(C#N)c(C(F)(F)F)c2)cc1-c1cc(N2CCOCC2)c2nccn2c1 [Example 877, 4-cyano-N-(6-methyl-5-(8-morpholinoimidazo[1,2-a]pyridin-6-yl)pyridin-3-yl)-3-(trifluoromethyl)benzamide] | 1.4 nM
3 | Cc1ncc(NC(=O)c2ccnc(C(C)(C)O)c2)cc1-c1cc(N2CCOCC2)c2nccn2c1 [Example 878, 2-(2-hydroxypropan-2-yl)-N-(6-methyl-5-(8-morpholinoimidazo[1,2-a]pyridin-6-yl)pyridin-3-yl)isonicotinamide] | 19.6 nM
4 | Cc1ncc(NC(=O)c2ccnc(C(C)(F)F)c2)cc1-c1cc(N2CCOCC2)c2nccn2c1 [Example 879, 2-(1,1-difluoroethyl)-N-(6-methyl-5-(8-morpholinoimidazo[1,2-a]pyridin-6-yl)pyridin-3-yl)isonicotinamide] | 1.2 nM
5 | Cc1ncc(NC(=O)c2ccnc(C(C)(C)C#N)c2)cc1-c1cc(N2CCOCC2)c2nccn2c1 [Example 881, 2-(2-cyanopropan-2-yl)-N-(6-methyl-5-(8-morpholinoimidazo[1,2-a]pyridin-6-yl)pyridin-3-yl)isonicotinamide] | 5.7 nM
6 | Cc1ncc(NC(=O)c2ccnc(C(C)C)c2)cc1-c1cc(N2CCOCC2)c2nccn2c1 [Example 882, 2-isopropyl-N-(6-methyl-5-(8-morpholinoimidazo[1,2-a]pyridin-6-yl)pyridin-3-yl)isonicotinamide] | 1.5 nM
7 | Cc1c(-c2nc3c(c(N4CCOCC4)n2)CS(=O)(=O)C3)cc(NC(=O)c2cccc(C(F)(F)F)c2)c[n+]1[O-] [Example 887, 2-methyl-3-(4-morpholino-6,6-dioxido-5,7-dihydrothieno[3,4-d]pyrimidin-2-yl)-5-(3-(trifluoromethyl)benzamido)pyridine 1-oxide] | 100 nM
8 | Cc1ccc(NC(=O)c2cc(C(C)(C)F)ccn2)cc1-c1cc(N2CCOCC2)c(=O)n(C)c1 [Example 907, 4-(2-fluoropropan-2-yl)-N-(4-methyl-3-(1-methyl-5-morpholino-6-oxo-1,6-dihydropyridin-3-yl)phenyl)picolinamide] | 0.94 nM
9 | Cc1ccc(NC(=O)c2cc(C(C)(C)N)cc(C(F)(F)F)c2)cc1-c1cc(N2CCOCC2)c(=O)n(C)c1 [Example 908, 3-(2-aminopropan-2-yl)-N-(4-methyl-3-(1-methyl-5-morpholino-6-oxo-1,6-dihydropyridin-3-yl)phenyl)-5-(trifluoromethyl)benzamide] | 2.53 nM
10 | Cc1ccc(NC(=O)c2cc(C(C)(C)C#N)ccn2)cc1-c1cc(N2CCOCC2)c(=O)n(C)n1 [Example 910, 4-(2-cyanopropan-2-yl)-N-(4-methyl-3-(1-methyl-5-morpholino-6-oxo-1,6-dihydropyridazin-3-yl)phenyl)picolinamide] | 1.02 nM
11 | Cc1ncc(NC(=O)c2ccnc(C(C)(C)F)c2)cc1-c1cc(N2CCOCC2)c(OC(C)C)nn1 [Example 911, 2-(2-fluoropropan-2-yl)-N-(5-(6-isopropoxy-5-morpholinopyridazin-3-yl)-6-methylpyridin-3-yl)isonicotinamide] | 1.2 nM

These reach a lower IC50. Values come first.

Row | IC50 | Structure (SMILES)
12 | 0.1 nM | Cc1ncc(NC(=O)c2ccnc(C(C)(F)F)c2)cc1-c1cc(N2CCOCC2)c2nccn2n1 [Example 871, 2-(1,1-difluoroethyl)-N-(6-methyl-5-(8-morpholinoimidazo[1,2-b]pyridazin-6-yl)pyridin-3-yl)isonicotinamide]
13 | 0.5 nM | Cc1ncc(NC(=O)c2ccc(C(O)CO)c(C(F)(F)F)c2)cc1-c1cc(N2CCOCC2)c2nccn2n1 (stereo not drawn) [Example 873, 4-(1,2-dihydroxyethyl)-N-(6-methyl-5-(8-morpholinoimidazo[1,2-b]pyridazin-6-yl)pyridin-3-yl)-3-(trifluoromethyl)benzamide]
14 | 0.6 nM | Cc1ncc(NC(=O)c2cccc(C(F)F)c2)cc1-c1cc(N2CCOCC2)c2nccn2c1 [Example 880, 3-(difluoromethyl)-N-(6-methyl-5-(8-morpholinoimidazo[1,2-a]pyridin-6-yl)pyridin-3-yl)benzamide]
15 | 0.6 nM | Cc1ncc(NC(=O)c2cccc(C(F)(F)F)c2)cc1-c1nc2c(c(N3CCOCC3)n1)CS(=O)(=O)C2 [Example 886, N-(6-methyl-5-(4-morpholino-6,6-dioxido-5,7-dihydrothieno[3,4-d]pyrimidin-2-yl)pyridin-3-yl)-3-(trifluoromethyl)benzamide]
16 | 0.6 nM | Cc1ccc(C(=O)Nc2cccc(C(F)(F)F)c2)cc1-c1nc2c(c(N3CCOCC3)n1)CNC2 [Example 889, 4-methyl-3-(4-morpholino-6,7-dihydro-5H-pyrrolo[3,4-d]pyrimidin-2-yl)-N-(3-(trifluoromethyl)phenyl)benzamide]
17 | 0.48 nM | Cc1ccc(NC(=O)c2cnnc(C3(C#N)CC3)c2)cc1-c1cc(N2CCOCC2)n(C)c(=O)c1 [Example 899, 6-(1-cyanocyclopropyl)-N-(4-methyl-3-(1-methyl-6-morpholino-2-oxo-1,2-dihydropyridin-4-yl)phenyl)pyridazine-4-carboxamide]
18 | 0.78 nM | Cc1ccc(NC(=O)c2cc(C(C)(C)C#N)ccn2)cc1-c1cc(N2CCOCC2)n(C)c(=O)c1 [Example 900, 4-(2-cyanopropan-2-yl)-N-(4-methyl-3-(1-methyl-6-morpholino-2-oxo-1,2-dihydropyridin-4-yl)phenyl)picolinamide]
19 | 0.21 nM | Cc1ccc(NC(=O)c2cncc(C(F)(F)F)c2)cc1-c1cc(N2CCOCC2)n(C)c(=O)c1 [Example 901, N-(4-methyl-3-(1-methyl-6-morpholino-2-oxo-1,2-dihydropyridin-4-yl)phenyl)-5-(trifluoromethyl)nicotinamide]
20 | 0.7 nM | Cc1ccc(NC(=O)c2cnnc(C3(C#N)CC3)c2)cc1-c1cc(N2CCOCC2)c(=O)n(C)c1 [Example 902, 6-(1-cyanocyclopropyl)-N-(4-methyl-3-(1-methyl-5-morpholino-6-oxo-1,6-dihydropyridin-3-yl)phenyl)pyridazine-4-carboxamide]
21 | 0.82 nM | Cc1ccc(NC(=O)c2cc(C(C)(C)C#N)ccn2)cc1-c1cc(N2CCOCC2)c(=O)n(C)c1 [Example 903, 4-(2-cyanopropan-2-yl)-N-(4-methyl-3-(1-methyl-5-morpholino-6-oxo-1,6-dihydropyridin-3-yl)phenyl)picolinamide]
22 | 0.47 nM | Cc1ccc(NC(=O)c2cncc(C(F)(F)F)c2)cc1-c1cc(N2CCOCC2)c(=O)n(C)c1 [Example 904, N-(4-methyl-3-(1-methyl-5-morpholino-6-oxo-1,6-dihydropyridin-3-yl)phenyl)-5-(trifluoromethyl)nicotinamide]
23 | 0.58 nM | Cc1ccc(NC(=O)c2cc(C(C)(F)F)ccn2)cc1-c1cc(N2CCOCC2)c(=O)n(C)c1 [Example 905, 4-(1,1-difluoroethyl)-N-(4-methyl-3-(1-methyl-5-morpholino-6-oxo-1,6-dihydropyridin-3-yl)phenyl)picolinamide]
24 | 0.32 nM | Cc1ccc(NC(=O)c2cncc(C(F)(F)F)c2)cc1-c1cc(N2CCOCC2)c(=O)n(C)n1 [Example 909, N-(4-methyl-3-(1-methyl-5-morpholino-6-oxo-1,6-dihydropyridazin-3-yl)phenyl)-5-(trifluoromethyl)nicotinamide]

Reference: US9694016B2 (Novartis AG, priority 2013, dated 2017)
